These results are taken from PubChem BioAssay AID2690 (NMMLSC, 2010).

The entries are a selection whose mix differs from that of the whole data set. Some salts or complexes appear as unconnected parts, following the source record. Active and inactive are the calls of the source.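 How the source made its calls: active means superoxide response under a set limit, about three screen SD below normal (cut at about 65% in these data); inactive means the rest.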

The nature of this experiment: reduction of superoxide in aged yeast, primary screen, HTS (AID 2690).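 Further: yeast aged for seven days with compound at 30 °C before DHE staining; 100% = average MFI of all compound-treated wells on the plate with controls excluded.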 The settings on record: S. cerevisiae aged cells, superoxide DHE fluorescence; at 10 µM; hits give low values.
Turning to `CP(=O)(Nc1ccc(SC(F)(F)F)cc1)Oc1ccc(F)cc1` (stereo not drawn), the superoxide response (% of plate mean) was inactive: 99.7%.

With `CCOP(C)(=S)SCC(=O)NC(C)(CC)C(=O)O` (stereo not drawn), the superoxide response (% of plate mean) was inactive: 101%.

Turning to `CP(=O)(Nc1ccc2c(c1)OCCO2)Oc1ccccc1` (stereo not drawn), the superoxide response (% of plate mean) is inactive: 99.7%.

For `Cc1ccccc1NP(C)(=O)Nc1ccccc1C`, the superoxide response (% of plate mean) was inactive: 111%.

As for `COc1ccc(OP(C)(=O)Nc2cccc(Br)c2)cc1` (stereo not drawn), the superoxide response (% of plate mean) is inactive: 102%.

Turning to `CN(C)CCOC(=O)C(O)(c1ccccc1)C1CCCCC1` (stereo not drawn), the superoxide response (% of plate mean) was inactive: 107%.

Consider `COc1ccc(NP(C)(=O)Oc2ccccc2OC)cc1` (stereo not drawn), for which the superoxide response (% of plate mean) is inactive: 97.4%.

Regarding `O=[N+]([O-])c1ccc(OP2(=O)COCCO2)cc1` (stereo not drawn), the superoxide response (% of plate mean) is inactive: 97.1%.

As to `O=[N+]([O-])c1cc([N+](=O)[O-])c(NCC2CCS(=O)(=O)C2)c([N+](=O)[O-])c1` (stereo not drawn), the superoxide response (% of plate mean) is inactive: 157%.

For `CCOC(=O)c1ccc(NP(C)(=O)Oc2ccc(F)cc2)cc1` (stereo not drawn), the superoxide response (% of plate mean) was inactive: 94.5%.

As to `COc1ccc(OP(C)(=O)Nc2ccc(SC(F)(F)F)cc2)cc1` (stereo not drawn), the superoxide response (% of plate mean) is inactive: 116%.

On to `CCN(CC)CCCOC(=O)C(O)(c1ccccc1)C1CCCCC1` (stereo not drawn), for which the superoxide response (% of plate mean) is inactive: 102%.

Regarding `CP(=O)(Nc1ccccc1)Oc1ccc(F)cc1` (stereo not drawn), the superoxide response (% of plate mean) is inactive: 114%.

For `O=[N+]([O-])c1cc([N+](=O)[O-])c(OC2CCCCC2O)c([N+](=O)[O-])c1` (stereo not drawn), the superoxide response (% of plate mean) was inactive: 108%.

Turning to `CCCCCOc1ccc(NP(C)(=O)Oc2ccc(Cl)cc2Cl)cc1` (stereo not drawn), the superoxide response (% of plate mean) is inactive: 99.4%.

On to `CP(=O)(Nc1ccccc1F)Oc1ccccc1` (stereo not drawn), for which the superoxide response (% of plate mean) was inactive: 102%.

In the case of `CC(C)c1ccc(OP(C)(=O)Nc2ccc(SC(F)(F)F)cc2)cc1` (stereo not drawn), the superoxide response (% of plate mean) is inactive: 93.4%.

For the compound `O=C(OC1CN2CCC1CC2)c1ccc([N+](=O)[O-])cc1` (stereo not drawn), the superoxide response (% of plate mean) was inactive: 104%.

In the case of `O=C(OCCN1CCN(CCOCc2ccccc2)CC1)C(O)(c1ccccc1)c1ccccc1`, the superoxide response (% of plate mean) is inactive: 83.2%.

With `COc1ccc2c(c1O)-c1c(O)c(OC)cc3c1[C@H](C2)[N+](C)(C)CC3.O=[N+]([O-])c1cc([N+](=O)[O-])c([O-])c([N+](=O)[O-])c1[O-]`, the superoxide response (% of plate mean) was inactive: 113%.

With `COc1ccccc1OP(C)(=O)Nc1ccc(Br)cc1` (stereo not drawn), the superoxide response (% of plate mean) was inactive: 110%.

Take `COc1ccc(OP(C)(=O)Nc2ccccn2)cc1` (stereo not drawn): the superoxide response (% of plate mean) is inactive: 107%.

On to `CN(C)CCOC(=O)C(O)(c1ccccc1)C1CCCC1` (stereo not drawn), for which the superoxide response (% of plate mean) was inactive: 90.5%.

With `O=[N+]([O-])c1cc([N+](=O)[O-])c(Nc2ccccn2)c([N+](=O)[O-])c1`, the superoxide response (% of plate mean) is inactive: 108%.

With `Cc1c(NP(C)(=O)Oc2ccc(C(C)C)cc2)c(=O)n(-c2ccccc2)n1C` (stereo not drawn), the superoxide response (% of plate mean) was inactive: 102%.

Turning to `COc1ccccc1OP(C)(=O)Nc1ccc(C)cc1C` (stereo not drawn), the superoxide response (% of plate mean) was inactive: 94%.

With `CP(=O)(Nc1ccccn1)Oc1ccccc1` (stereo not drawn), the superoxide response (% of plate mean) was inactive: 108%.

Consider `CCc1ccc(OP(C)(=O)O)cc1`, for which the superoxide response (% of plate mean) was inactive: 104%.

Take `Cc1cc(C)cc(OP(C)(=O)Nc2cccc(C(F)(F)F)c2)c1` (stereo not drawn): the superoxide response (% of plate mean) was inactive: 109%.

`COc1ccccc1OP(C)(=O)Nc1ccc(C)c(C)c1` (stereo not drawn): the superoxide response (% of plate mean) was inactive: 90.9%.

With `COc1ccc(OP(C)(=O)Nc2ccccc2Br)cc1` (stereo not drawn), the superoxide response (% of plate mean) is inactive: 94.1%.

Take `Cc1nc2ccc3ccccc3c2o1.O=[N+]([O-])c1cc([N+](=O)[O-])c(O)c([N+](=O)[O-])c1`: the superoxide response (% of plate mean) is inactive: 126%.

As for `CP(=O)(OCCOc1ccccc1)OCCOc1ccccc1`, the superoxide response (% of plate mean) was inactive: 112%.

Turning to `CP(=O)(Nc1ccc(Cl)cc1Cl)Oc1ccccc1` (stereo not drawn), the superoxide response (% of plate mean) was inactive: 98.3%.

Take `Nc1ccc2c(ccc3cccnc32)n1.O=[N+]([O-])c1cc([N+](=O)[O-])c(O)c([N+](=O)[O-])c1`: the superoxide response (% of plate mean) is inactive: 110%.

Regarding `CCOC(=O)c1ccc(NP(C)(=O)Oc2ccc(Cl)cc2)cc1` (stereo not drawn), the superoxide response (% of plate mean) is inactive: 113%.

`CP(=O)(OC12CC3CC(CC(C3)C1)C2)OC12CC3CC(CC(C3)C1)C2`: the superoxide response (% of plate mean) is inactive: 124%.

`COc1ccc(OP(C)(=O)Nc2ccc(Br)cc2)cc1` (stereo not drawn): the superoxide response (% of plate mean) is inactive: 96.4%.

Consider `CCN(CC)CC(O)COC(=O)C(O)(c1ccccc1)C1CCCCC1` (stereo not drawn), for which the superoxide response (% of plate mean) is inactive: 106%.

For `O=C(OCCCN1CCCC1)C(O)(c1ccccc1)C1CCCCC1` (stereo not drawn), the superoxide response (% of plate mean) was inactive: 112%.

In the case of `COc1ccccc1OP(C)(=O)Nc1c(C)n(C)n(-c2ccccc2)c1=O` (stereo not drawn), the superoxide response (% of plate mean) was inactive: 98.2%.

Turning to `CCc1ccc(OP(C)(=O)Nc2cccnc2)cc1` (stereo not drawn), the superoxide response (% of plate mean) was inactive: 84.4%.

In the case of `CP(=O)(Oc1ccccc1)N1CCOC1=O` (stereo not drawn), the superoxide response (% of plate mean) is inactive: 100%.

On to `CC(C)(C)c1ccc(OP(C)(=O)O)cc1`, for which the superoxide response (% of plate mean) is inactive: 98.8%.

As for `COc1ccccc1OP(C)(=O)Nc1ccccc1Br` (stereo not drawn), the superoxide response (% of plate mean) was inactive: 100%.

Consider `CP(=O)(Nc1ccc(Cl)cc1)Oc1ccc(F)cc1` (stereo not drawn), for which the superoxide response (% of plate mean) was inactive: 91.6%.

As to `CN(C)C(=O)c1c([N+](=O)[O-])cc([N+](=O)[O-])cc1[N+](=O)[O-]`, the superoxide response (% of plate mean) is inactive: 126%.

Regarding `CP(=O)(Oc1ccccc1)OC(c1ccccc1)C(F)(F)F` (stereo not drawn), the superoxide response (% of plate mean) was inactive: 92.4%.

Regarding `CP(=O)(Nc1ccc(SC(F)(F)F)cc1)Oc1ccc(Cl)cc1` (stereo not drawn), the superoxide response (% of plate mean) was inactive: 105%.

In the case of `Cc1cccc(C)c1OP(C)(=O)Nc1ccc(SC(F)(F)F)cc1` (stereo not drawn), the superoxide response (% of plate mean) is inactive: 103%.

Consider `Cc1cc(C)cc(OP(C)(=O)Nc2ccc(SC(F)(F)F)cc2)c1` (stereo not drawn), for which the superoxide response (% of plate mean) was inactive: 99.2%.

In the case of `CCc1ccc(OP(C)(=O)N2CCN(c3ccc([N+](=O)[O-])cc3)CC2)cc1` (stereo not drawn), the superoxide response (% of plate mean) is inactive: 92.1%.

For `CP(=O)(NC(=O)Nc1ccccc1)Oc1ccccc1` (stereo not drawn), the superoxide response (% of plate mean) is inactive: 106%.

On to `O=[N+]([O-])c1cc([N+](=O)[O-])c(O)c([N+](=O)[O-])c1.c1ccc(Oc2ccncc2)cc1`, for which the superoxide response (% of plate mean) is inactive: 133%.

Turning to `CCOC(=O)c1ccc(NP(C)(=O)Oc2ccc(OC)cc2)cc1` (stereo not drawn), the superoxide response (% of plate mean) is inactive: 105%.

In the case of `CCOP(C)(=S)SCC(=O)NC(C)C(=O)O` (stereo not drawn), the superoxide response (% of plate mean) is inactive: 92.8%.

Turning to `CP(=O)(Nc1ccccn1)Oc1ccc(Cl)cc1` (stereo not drawn), the superoxide response (% of plate mean) is inactive: 90.7%.

For `CP(=S)(Nn1cnnc1)Oc1ccccc1` (stereo not drawn), the superoxide response (% of plate mean) is inactive: 89.5%.

For the compound `CP(=O)(Nc1ccccc1Br)Oc1ccccc1` (stereo not drawn), the superoxide response (% of plate mean) was inactive: 96.3%.

As to `COc1ccccc1OP(C)(=O)Nc1ccccc1` (stereo not drawn), the superoxide response (% of plate mean) was inactive: 87.7%.

For `O=[N+]([O-])c1cc([N+](=O)[O-])c(Nc2cccnc2)c([N+](=O)[O-])c1`, the superoxide response (% of plate mean) is inactive: 100%.

Regarding `O=[N+]([O-])c1ccc2c(c1)C=Nc1ccccc1O2`, the superoxide response (% of plate mean) is inactive: 84.8%.

In the case of `Cc1cccc(C)c1OP(C)(N)=O` (stereo not drawn), the superoxide response (% of plate mean) is inactive: 88.5%.

Regarding `CC(C)(C)c1ccc(OP(C)(=O)Nc2ccc(SC(F)(F)F)cc2)cc1` (stereo not drawn), the superoxide response (% of plate mean) was inactive: 105%.

On to `Cc1ccc(NP(C)(=O)Oc2ccccc2)c(C)c1` (stereo not drawn), for which the superoxide response (% of plate mean) is inactive: 93.1%.

Consider `COc1ccccc1OP(C)(=O)Nc1ccc(C)cc1` (stereo not drawn), for which the superoxide response (% of plate mean) was inactive: 102%.

Turning to `CCOC(=O)c1ccc(NP(C)(=O)Oc2ccccc2)cc1` (stereo not drawn), the superoxide response (% of plate mean) was inactive: 97.5%.

Turning to `Cc1cc(C)cc(OP(C)(N)=O)c1` (stereo not drawn), the superoxide response (% of plate mean) was inactive: 132%.

With `COc1ccc(OP(C)(=O)Nc2cccc(F)c2)cc1` (stereo not drawn), the superoxide response (% of plate mean) was inactive: 92.3%.

For `COc1ccccc1OP(C)(=O)Nc1cc(Cl)ccc1C` (stereo not drawn), the superoxide response (% of plate mean) was inactive: 104%.

Take `CCN(CC)CCCOC(=O)C(O)(c1ccccc1)c1ccccc1`: the superoxide response (% of plate mean) is inactive: 91.2%.

In the case of `COc1ccccc1OP(C)(=O)Nc1cccc(Br)c1` (stereo not drawn), the superoxide response (% of plate mean) is inactive: 83.8%.

With `CCOC(=O)c1ccc(NP(C)(=O)Oc2cc(C)cc(C)c2)cc1` (stereo not drawn), the superoxide response (% of plate mean) was inactive: 101%.

On to `Cc1cc(C)cc(OP(C)(=O)Nc2ccc(C)cc2C)c1` (stereo not drawn), for which the superoxide response (% of plate mean) is inactive: 106%.

Regarding `Cc1ccc(C)c(NP(C)(=O)Oc2ccccc2)c1` (stereo not drawn), the superoxide response (% of plate mean) is inactive: 91%.

Regarding `CP(=O)(Nc1cccc(Br)c1)Oc1ccccc1` (stereo not drawn), the superoxide response (% of plate mean) was inactive: 91%.

`Cc1cc(C)cc(OP(C)(=O)Nc2ccccn2)c1` (stereo not drawn): the superoxide response (% of plate mean) was inactive: 86.3%.

For the compound `O=C(O)c1cccc(Nc2c([N+](=O)[O-])cc([N+](=O)[O-])cc2[N+](=O)[O-])c1`, the superoxide response (% of plate mean) is inactive: 118%.

As for `CC1=NCCc2c1[nH]c1ccccc21.O=[N+]([O-])c1cc([N+](=O)[O-])c(O)c([N+](=O)[O-])c1`, the superoxide response (% of plate mean) was inactive: 104%.

Regarding `CCOC(=O)C(CC)C1=NC(C)(C)Cc2ccccc21.O=[N+]([O-])c1cc([N+](=O)[O-])c(O)c([N+](=O)[O-])c1` (stereo not drawn), the superoxide response (% of plate mean) was inactive: 119%.

For `O=[N+]([O-])c1cc([N+](=O)[O-])c(Nc2nnnn2CCO)c([N+](=O)[O-])c1`, the superoxide response (% of plate mean) was inactive: 122%.

Turning to `CC1=C2N=C(C=C3N=C(C(C)=C4[N-][C@@](C)([C@@H]5N=C1[C@](C)(CCC(=O)NC[C@@H](C)OP(=O)([O-])O[C@H]1[C@@H](O)[C@@H](n6cnc7cc(C)c(C)cc76)O[C@@H]1CO)[C@H]5CC(N)=O)[C@@](C)(CC(N)=O)[C@@H]4CCC(N)=O)[C@@](C)(CC(N)=O)[C@@H]3CCC(N)=O)C(C)(C)[C@@H]2CCC(N)=O.[C-]#N.[Co+3]`, the superoxide response (% of plate mean) is inactive: 97.3%.

Consider `CN1CCCCC1COC(=O)C1(O)c2ccccc2CCc2ccccc21` (stereo not drawn), for which the superoxide response (% of plate mean) is inactive: 106%.

For the compound `COc1ccccc1OP(C)(=O)Nc1c(C)cccc1C` (stereo not drawn), the superoxide response (% of plate mean) is inactive: 111%.

Turning to `CP(=O)(Nc1ccc(SC(F)(F)F)cc1)Oc1ccccc1` (stereo not drawn), the superoxide response (% of plate mean) was inactive: 91.9%.

Consider `CCCOc1ccc(NP(C)(=O)Oc2ccc(Cl)cc2)cc1` (stereo not drawn), for which the superoxide response (% of plate mean) was inactive: 100%.

Regarding `O=[N+]([O-])c1cc([N+](=O)[O-])c(-n2nnc3ccccc32)c([N+](=O)[O-])c1`, the superoxide response (% of plate mean) is inactive: 116%.

On to `Cc1nc2ccc3ccccc3c2s1.O=[N+]([O-])c1cc([N+](=O)[O-])c(O)c([N+](=O)[O-])c1`, for which the superoxide response (% of plate mean) was inactive: 134%.
